Reference: paper PMC6979384, “Characterization of the plant homeodomain (PHD) reader family for their histone tail interactions” (Epigenetics & Chromatin, 2020)

Legend:
Assay in all cases: Histone peptide microarray
Format in all cases: binding, human
[1] = tested on: KDM5B (1); conditions: sheet "Array Heatmap"; GST-tagged KDM5B (1); arrays performed twice, total replicate number n = 4
From the text: (§1) To more comprehensively define the histone interactions of the 31 PHD readers identified from the domain microarray analyses, we probed each on an alternate microarray platform containing a library of 293 synthetic histone peptides with single or combinatorial PTMs (Additional file 2: Figure S4 and Additional file 3: Table S2).
(§2) The 31 GST-tagged PHD readers identified in the PHD finger domain array were expressed and purified as previously. Histone peptide arrays and peptide pulldown assays were conducted as recently described (specifically, the optimized protocol from Petell et al. for the former).
Supplementary file 13072_2020_328_MOESM3_ESM.xlsx: Additional file 3: Table S2. […] Excel Tab Peptide List is a compiled list of the entire 293 histone peptide library with amino acid sequence ranges. […] Each number corresponds to the peptide number designated in Peptide List. Excel Tab Average Signals is a compiled set of binding data: chromatin reader at 0.5 μM vs. entire 293 peptide library. Data is presented as the average and standard deviation of 4 replicates. The average signals are colored to indicate signal intensity with green being strong and white being weak/low. […] Key: red= stronger relative binding; blue = weaker relative binding. Excel Tab Array info summary is a table summarizing the domains, sequence coverage, array signal range, and noise for each of the GST-tagged readers assayed on the peptide microarrays.

[2] = tested on: KDM4C (TTP); conditions: sheet "Array Heatmap"; GST-tagged KDM4C (TTP); arrays performed twice, total replicate number n = 4
From the text: as §1, with “S2). […] In general, the 31 PHD fingers were confirmed to associate with the H3 tail with the same H3K4 methyl preferences as in the domain microarrays (Fig. 2; Additional file 3: Table S2). […] In addition, we confirmed the newly identified interactions observed with the domain microarrays for PHRF1 and TRIM66 (Fig. 2).” for “S2).”
as §2
(§3) Supplementary file 13072_2020_328_MOESM3_ESM.xlsx: Additional file 3: Table S2. Histone Peptide Microarray Results. Excel Tab Peptide List is a compiled list of the entire 293 histone peptide library with amino acid sequence ranges. Excel Tab Peptide Array Grid Map is a table representing the pattern in which peptides have been printed for the peptide microarray. Each number corresponds to the peptide number designated in Peptide List. Excel Tab Average Signals is a compiled set of binding data: chromatin reader at 0.5 μM vs. entire 293 peptide library. Data is presented as the average and standard deviation of 4 replicates. The average signals are colored to indicate signal intensity with green being strong and white being weak/low. […] Key: red= stronger relative binding; blue = weaker relative binding. Excel Tab Array info summary is a table summarizing the domains, sequence coverage, array signal range, and noise for each of the GST-tagged readers assayed on the peptide microarrays.

[3] = tested on: MORC3 (CW); conditions: sheet "Array Heatmap"; GST-tagged MORC3 (CW); arrays performed twice, total replicate number n = 4
From the text: as §1, with “S2). […] In general, the 31 PHD fingers were confirmed to associate with the H3 tail with the same H3K4 methyl preferences as in the domain microarrays (Fig. 2; Additional file 3: Table S2). […] In addition, we confirmed the newly identified interactions observed with the domain microarrays for PHRF1 and TRIM66 (Fig. 2).” for “S2).”
as §2, §3

[4] = tested on: ING1; conditions: sheet "Array Heatmap"; GST-tagged ING1; arrays performed twice, total replicate number n = 4
From the text: as §1, with “S2). […] In general, the 31 PHD fingers were confirmed to associate with the H3 tail with the same H3K4 methyl preferences as in the domain microarrays (Fig. 2; Additional file 3: Table S2). […] In addition, we confirmed the newly identified interactions observed with the domain microarrays for PHRF1 and TRIM66 (Fig. 2).” for “S2).”
as §2, §3

[5] = tested on: PHF23; conditions: sheet "Array Heatmap"; GST-tagged PHF23; arrays performed twice, total replicate number n = 4
From the text: as §1, with “S2). […] In general, the 31 PHD fingers were confirmed to associate with the H3 tail with the same H3K4 methyl preferences as in the domain microarrays (Fig. 2; Additional file 3: Table S2). […] In addition, we confirmed the newly identified interactions observed with the domain microarrays for PHRF1 and TRIM66 (Fig. 2).” for “S2).”
as §2, §3

[6] = tested on: BAZ2B; conditions: sheet "Array Heatmap"; GST-tagged BAZ2B; arrays performed twice, total replicate number n = 4
From the text: as §1, with “S2). […] In general, the 31 PHD fingers were confirmed to associate with the H3 tail with the same H3K4 methyl preferences as in the domain microarrays (Fig. 2; Additional file 3: Table S2). […] In addition, we confirmed the newly identified interactions observed with the domain microarrays for PHRF1 and TRIM66 (Fig. 2).” for “S2).”
as §2, §3

[7] = tested on: DIDO1; conditions: sheet "Array Heatmap"; GST-tagged DIDO1; arrays performed twice, total replicate number n = 4
From the text: as §1, with “S2). […] In general, the 31 PHD fingers were confirmed to associate with the H3 tail with the same H3K4 methyl preferences as in the domain microarrays (Fig. 2; Additional file 3: Table S2). […] In addition, we confirmed the newly identified interactions observed with the domain microarrays for PHRF1 and TRIM66 (Fig. 2).” for “S2).”
as §2, §3

[8] = tested on: PHF8; conditions: sheet "Array Heatmap"; GST-tagged PHF8; arrays performed twice, total replicate number n = 4
From the text: as §1, with “S2). […] In general, the 31 PHD fingers were confirmed to associate with the H3 tail with the same H3K4 methyl preferences as in the domain microarrays (Fig. 2; Additional file 3: Table S2). […] In addition, we confirmed the newly identified interactions observed with the domain microarrays for PHRF1 and TRIM66 (Fig. 2).” for “S2).”
as §2, §3

[9] = tested on: SP140L; conditions: sheet "Array Heatmap"; GST-tagged SP140L; arrays performed twice, total replicate number n = 4
From the text: as §1, with “S2). […] In general, the 31 PHD fingers were confirmed to associate with the H3 tail with the same H3K4 methyl preferences as in the domain microarrays (Fig. 2; Additional file 3: Table S2). […] In addition, we confirmed the newly identified interactions observed with the domain microarrays for PHRF1 and TRIM66 (Fig. 2).” for “S2).”
as §2, §3

[10] = tested on: ING2; conditions: sheet "Array Heatmap"; GST-tagged ING2; arrays performed twice, total replicate number n = 4
From the text: as §1, with “S2). […] In general, the 31 PHD fingers were confirmed to associate with the H3 tail with the same H3K4 methyl preferences as in the domain microarrays (Fig. 2; Additional file 3: Table S2). […] In addition, we confirmed the newly identified interactions observed with the domain microarrays for PHRF1 and TRIM66 (Fig. 2).” for “S2).”
as §2, §3

[11] = tested on: PHF21A; conditions: sheet "Array Heatmap"; GST-tagged PHF21A; arrays performed twice, total replicate number n = 4
From the text: as §1, with “S2). […] In general, the 31 PHD fingers were confirmed to associate with the H3 tail with the same H3K4 methyl preferences as in the domain microarrays (Fig. 2; Additional file 3: Table S2). […] In addition, we confirmed the newly identified interactions observed with the domain microarrays for PHRF1 and TRIM66 (Fig. 2).” for “S2).”
as §2, §3

[12] = tested on: KDM5B (3); conditions: sheet "Array Heatmap"; GST-tagged KDM5B (3); arrays performed twice, total replicate number n = 4
From the text: as §1, with “S2). […] In general, the 31 PHD fingers were confirmed to associate with the H3 tail with the same H3K4 methyl preferences as in the domain microarrays (Fig. 2; Additional file 3: Table S2). […] In addition, we confirmed the newly identified interactions observed with the domain microarrays for PHRF1 and TRIM66 (Fig. 2).” for “S2).”
as §2, §3

[13] = tested on: ING4; conditions: sheet "Array Heatmap"; GST-tagged ING4; arrays performed twice, total replicate number n = 4
From the text: as §1, with “S2). […] In general, the 31 PHD fingers were confirmed to associate with the H3 tail with the same H3K4 methyl preferences as in the domain microarrays (Fig. 2; Additional file 3: Table S2). […] In addition, we confirmed the newly identified interactions observed with the domain microarrays for PHRF1 and TRIM66 (Fig. 2).” for “S2).”
as §2, §3

[14] = tested on: KDM7A; conditions: sheet "Array Heatmap"; GST-tagged KDM7A; arrays performed twice, total replicate number n = 4
From the text: as §1, with “S2). […] In general, the 31 PHD fingers were confirmed to associate with the H3 tail with the same H3K4 methyl preferences as in the domain microarrays (Fig. 2; Additional file 3: Table S2). […] In addition, we confirmed the newly identified interactions observed with the domain microarrays for PHRF1 and TRIM66 (Fig. 2).” for “S2).”
as §2, §3

[15] = tested on: PHF13; conditions: sheet "Array Heatmap"; GST-tagged PHF13; arrays performed twice, total replicate number n = 4
From the text: as §1, with “S2). […] In general, the 31 PHD fingers were confirmed to associate with the H3 tail with the same H3K4 methyl preferences as in the domain microarrays (Fig. 2; Additional file 3: Table S2). […] In addition, we confirmed the newly identified interactions observed with the domain microarrays for PHRF1 and TRIM66 (Fig. 2).” for “S2).”
as §2, §3

H3K4me2 + K9me2: H3 1-15 was tested. Which “Array Heatmap signal, KDM5B (1)” value [1] did it give?
The value was 0.6814.

What about the “Array Heatmap signal, KDM4C (TTP)” value [2] of the same substance?
Its value is 0.5756.

What about the “Array Heatmap signal, MORC3 (CW)” value [3] of the same substance?
Its value is 0.5918.

And the “Array Heatmap signal, ING1” value [4]?
The value was 0.6537.

What about the “Array Heatmap signal, PHF23” value [5] of the same substance?
Its value is 0.6416.

What about the “Array Heatmap signal, BAZ2B” value [6] of the same substance?
The value was 0.5415.

What about the “Array Heatmap signal, DIDO1” value [7] of the same substance?
Its value is 0.8456.

What about the “Array Heatmap signal, PHF8” value [8] of the same substance?
The value was 0.4521.

What about the “Array Heatmap signal, SP140L” value [9] of the same substance?
Its value is 0.3961.

What about the “Array Heatmap signal, ING2” value [10] of the same substance?
Its value is 0.6793.

What about the “Array Heatmap signal, PHF21A” value [11] of the same substance?
Its value is 0.526.

What about the “Array Heatmap signal, KDM5B (3)” value [12] of the same substance?
The value was 0.5432.

What about the “Array Heatmap signal, ING4” value [13] of the same substance?
Its value is 0.5436.

What about the “Array Heatmap signal, KDM7A” value [14] of the same substance?
The value was 0.3992.

And the “Array Heatmap signal, PHF13” value [15]?
The value was 0.7097.
